From patent US20090311271A1

Key:
[1] = biological target: Human oxidized LDL; test: ELISA: oxLDL coated on the plate, His-LOX-1 titrated, detected with goat anti-LOX-1 and HRP secondary antibody, OD450
[2] = biological target: purified recombinant human CRP (human) (UniProt P02741); test: ELISA: CRP coated on the plate, His-LOX-1 titrated, detected with goat anti-LOX-1 and HRP secondary antibody, OD450

EC50 (read off the curve) [1] [µg/mL] | EC50 (read off the curve) [2] [µg/mL] | Substance
2 |  | purified recombinant human LOX1 comprised of the extracellular domain (ECD) of human LOX-1 (amino acids 61-273) with an N-terminal polyhistidine tag (from UniProt P78380 61-273) (receptor)
 | 2 | purified recombinant human LOX1 comprised of the extracellular domain (ECD) of human LOX-1 (amino acids 61-273) with an N-terminal polyhistidine tag (from UniProt P78380 61-273) (receptor; other documents disagree on this pair)
